## scFv variants of Ab-14 (light chain) against a SARS-CoV-2 spike peptide

The target is the same throughout: PDVDLGDISGINAS, from the HR2 region of SARS-CoV-2 spike.

Parent: Ab-14, a human scFv built as VH, three GGGGS repeats, VL. Only the CDRs of the light chain vary.
VH: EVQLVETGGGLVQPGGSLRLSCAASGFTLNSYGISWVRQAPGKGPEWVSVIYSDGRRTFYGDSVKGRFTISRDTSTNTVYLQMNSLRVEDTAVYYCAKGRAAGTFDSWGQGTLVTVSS
VL: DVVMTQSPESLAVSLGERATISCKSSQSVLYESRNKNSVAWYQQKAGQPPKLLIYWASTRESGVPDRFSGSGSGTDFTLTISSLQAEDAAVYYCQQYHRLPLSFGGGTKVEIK

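The parent was found by panning a naive human phage display library on the peptide. Library AAYL50 holds single substitutions and randomly drawn double and triple substitutions in the CDRs. In AlphaSeq, yeast of one mating type display the scFv and yeast of the other type display the target. After mating in shaken culture at 30 °C for 16 h, diploids were selected and their barcode pairs sequenced. Each replicate has its own calibration line, from reference interactions of the BCL2 family. Mating was done three times.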

Changes read parent residue, position, new residue, counted from the first residue of the VL shown.
The read-out is the apparent dissociation constant on a log10 scale (nM): the lower, the stronger.
Averages over replicates are reported, and they cover detected replicates only.
"nd" marks a missing value. The strain was present, yet no cells mated with the target were sequenced in that replicate, which points to weak or no binding.

changes,"replicates, log10 nM","log10 Kd (nM), mean",signal with controls
V39N W56M R99C,3.20 / nd / nd,3.20,1/9 (4.47)
E32A S33V E61A,1.83 / 1.79 / 2.06,1.90,1/9 (4.86)
K36W A40G,5.93 / 4.75 / 4.13,4.94,1/9 (3.55)
Y31L S38A S103E,1.26 / 1.43 / 1.40,1.36,1/9 (2.94)
S28E S62N Y97R,nd / 4.10 / nd,4.10,0/9
Y31L N37D R99T,1.38 / 1.57 / 1.67,1.54,6/9 (3.78)
R34W V39A S103F,nd / nd / nd,nd,3/9 (4.18)
R34P K36W Y97S,0.64 / 0.51 / 0.87,0.67,1/9 (4.78)
V29E W56T,-0.03 / 0.40 / 0.21,0.19,2/9 (5.71)
S28V S58K Q96Y,nd / nd / nd,nd,0/9
S25M N35V S58N,0.08 / 0.35 / 0.17,0.20,3/9 (4.28)
L30I V39S A40G,5.70 / 3.96 / 5.36,5.01,6/9 (4.52)
S25L Q95A Y97K,0.40 / 0.63 / 0.41,0.48,4/9 (5.23)
S28Q N37C H98K,3.42 / 2.31 / 3.12,2.95,0/9
N37Y W56M L102K,2.08 / 2.23 / 2.07,2.13,3/9 (3.50)
N37R V39W T59A,nd / 5.63 / nd,5.63,7/9 (4.43)
S26N T59C R60W,nd / nd / nd,nd,1/9 (2.99)
R34F A57R P101C,nd / nd / nd,nd,0/9
K36P E61V Q96D,-0.02 / 0.16 / 0.05,0.06,2/9 (4.12)
S25F R34C Q95S,1.70 / 1.92 / 2.68,2.10,5/9 (4.25)
S28V N35M S62Y,2.09 / 1.76 / 2.13,1.99,1/9 (3.72)
R34F Q95A H98S,1.00 / 1.23 / 1.32,1.18,3/9 (4.95)
Q96H R99C S103T,0.86 / 1.04 / 0.91,0.94,2/9 (4.19)
Q27D P101Q L102C,nd / nd / nd,nd,2/9 (2.25)
A57E Q96M L102Q,nd / nd / nd,nd,0/9
R34K S38I R60D,nd / 3.37 / 3.45,3.41,1/9 (3.26)
W56P A57Y S58K,nd / nd / nd,nd,0/9
K24R W56E R60C,0.34 / 0.64 / 0.49,0.49,1/9 (4.00)
L30I Y97P L102C,1.39 / 1.48 / 1.48,1.45,2/9 (3.94)
E32T A40F L100I,nd / nd / nd,nd,0/9
S62Y Y97W P101V,nd / nd / nd,nd,0/9
S33T N37V S62Y,3.80 / 2.39 / 3.55,3.25,3/9 (4.44)
V39W P101V,nd / 2.70 / 4.29,3.50,1/9 (3.49)
K24E N37W,2.13 / 2.06 / 2.24,2.14,0/9
S28H A40S A57F,3.65 / 4.37 / nd,4.01,5/9 (4.33)
Q27Y Q95I S103L,nd / nd / nd,nd,0/9
R34Q N35G S38P,1.96 / 1.84 / 2.37,2.06,6/9 (4.67)
S25L Q27K K36W,0.64 / 0.81 / 0.53,0.66,4/9 (4.57)
L30N R34Y V39N,3.48 / 3.51 / 5.10,4.03,8/9 (4.50)
K36Q S38T W56R,1.77 / 1.96 / 2.00,1.91,3/9 (5.00)
S33N Q95V L100S,2.21 / 1.72 / 2.04,1.99,2/9 (3.91)
K36H P101N S103C,nd / nd / nd,nd,0/9
K24G Q27W E61Y,2.47 / 1.78 / 2.74,2.33,1/9 (3.24)
E32Q S58A Y97L,1.07 / 1.12 / 0.94,1.04,0/9

The 7 strongest on average among those seen in every replicate, once more:

changes	replicates, log10 nM	log10 Kd (nM), mean	signal with controls
K36P E61V Q96D	-0.02 / 0.16 / 0.05	0.06	2/9 (4.12)
V29E W56T	-0.03 / 0.40 / 0.21	0.19	2/9 (5.71)
S25M N35V S58N	0.08 / 0.35 / 0.17	0.20	3/9 (4.28)
S25L Q95A Y97K	0.40 / 0.63 / 0.41	0.48	4/9 (5.23)
K24R W56E R60C	0.34 / 0.64 / 0.49	0.49	1/9 (4.00)
S25L Q27K K36W	0.64 / 0.81 / 0.53	0.66	4/9 (4.57)
R34P K36W Y97S	0.64 / 0.51 / 0.87	0.67	1/9 (4.78)

Parent in this assay: reference entry 0.65, copy in this library 1.68.
Three control strains display no target. For library AAYL50, 18% of the pairings with them gave a signal, with a median of 4.19 and one signal in twenty below 2.99, so weak values seen in few replicates may be background. For each scFv, signals with the empty controls are counted beside the result, with their mean in brackets.

Data: MIT Lincoln Laboratory AlphaSeq set, Engelhart et al. 2022, doi:10.1038/s41597-022-01779-4, as distributed in FLAb.